# How the values were obtained:
# Collagenase 3 = Collagenase 3 (Homo sapiens, UniProt P45452); experiment: Inhibitory activity against matrix metalloprotease-13 (MMP13)
# Interstitial collagenase = biological target: T1, Interstitial collagenase (Homo sapiens, UniProt P03956); experiment: Inhibitory activity against matrix metalloprotease-1 (MMP1)
# T1 sequence (P03956 whole entry): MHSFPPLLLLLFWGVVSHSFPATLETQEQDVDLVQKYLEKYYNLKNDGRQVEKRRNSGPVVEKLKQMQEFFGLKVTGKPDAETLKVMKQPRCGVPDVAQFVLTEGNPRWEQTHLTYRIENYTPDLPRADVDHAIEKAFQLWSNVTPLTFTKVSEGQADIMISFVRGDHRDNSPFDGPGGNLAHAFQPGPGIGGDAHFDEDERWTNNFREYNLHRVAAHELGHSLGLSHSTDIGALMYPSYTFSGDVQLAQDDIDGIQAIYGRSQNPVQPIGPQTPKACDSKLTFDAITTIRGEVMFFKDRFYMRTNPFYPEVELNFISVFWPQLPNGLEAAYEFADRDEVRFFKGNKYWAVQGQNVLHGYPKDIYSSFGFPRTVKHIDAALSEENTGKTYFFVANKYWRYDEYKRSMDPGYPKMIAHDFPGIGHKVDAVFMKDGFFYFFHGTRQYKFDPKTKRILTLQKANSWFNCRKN
IC50 (Collagenase 3) [µM],IC50 (Interstitial collagenase) [µM],SMILES
0.0034,,CN1C(=O)N(C[C@H](C(=O)NO)[C@@H](CC2CCCC2)C(=O)N2CCCCC2)C(=O)C1(C)C
,5.9,O=C(O)[C@H]1[C@H](CN2C(=O)c3ccccc3C2=O)CC[C@@H]1S(=O)(=O)CCc1ccc(-c2ccc(F)cc2)cc1

# From ChEMBL document CHEMBL1145069, “Stereospecific synthesis of 5-substituted 2-bisarylthiocyclopentane carboxylic acids as specific matrix metalloproteinase inhibitors” (J Med Chem, 2003)
